A selection: hits, their analogues and other compounds. The true share with any hit is near 4.2%.
HDAC3 inh: human HDAC3 inhibition; O15379; recombinant HDAC3, fluorogenic peptide/trypsin coupled, fluorescence; inhibition, % at 8.3 µM; 0.15% of 320,000 active; AID 2718; in the data active = inhibition above about 26%, passing the limit was not always enough
MC4R ag barr: agonists of human melanocortin 4 receptor (MC4R) beta-arrestin. P32245. U2OS MC4R beta-arrestin complementation, luminescence; percent of melanotan II response, DMSO zero. activation, % at 8.9 µM. 0.98% of 360,000 active. AID 540308;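 active = activation above a per-plate cutoff, the mean activation of sample wells on that plate plus 3 SD, cut at about 8% in these data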
Yeast UUG start: alters start codon recognition fidelity in yeast. S. cerevisiae UUG-firefly luciferase reporter, luminescence/redox ratio. activity score, % at 18.7 µM. 0.13% of 350,000 active. AID 602363;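 active = replicate mean at a twofold rise or more, about +100% in these data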;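 also: firefly luciferase made from a UUG start codon reports start codon fidelity; reporter light over untreated wells divided by growth signal over untreated wells; some hits fall short of that in this replicate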
NALP1 inh: inhibitors of NALP1 inflammasome in yeast. S. cerevisiae NALP1/ASC/caspase-1 growth, X-gal OD620, 72 h. 0.61% of 280,000 active. inhibition, % at 10 µM; in the data active = inhibition mostly above about 24%, no sharp cut-off; inactive = mostly below about 32%
MC4R antag cAMP: antagonists of human melanocortin 4 receptor (MC4R) | inhibition, % at 6.5 µM | 0.48% of 360,000 active | MC4R-expressing cells, MTII-stimulated cAMP, LANCE TR-FRET | P32245 | AID 540295;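 active = inhibition above its plate's cutoff, the mean of tested wells on that plate plus 3 SD, cut at about 29% in these data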;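 note: 0% = Melanotan II alone and 100% = Melanotan II plus saturating MCL0020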
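System: U2OS cells stably expressing human melanocortin 4 receptor (MC4R). Reagent: Melanotan II challenge after compound preincubation. Doses: 6.5 µM. Times: 30-min compound, 1-h challenge, 1-h detection, room temperature. Measured by: TR-FRET with Eu-cAMP and labeled anti-cAMP, 671 nm. Replicates: singlicate.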
ALR H2O2 inh: human ALR oxidase inhibition via reduced H2O2; P55789; purified ALR, DTT oxidation, H2O2 HRP-luminol luminescence; inhibition, % (test concentration not listed); actives 3.8% (n = 290,000); AID 485317;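 active means mean and each replicate at 75% or more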;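 further: stock transfer was 7.5 nL into about 7.5 µL; 0% = neutral wells and 100% = wells with inactivated enzyme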
Starred values were filed as active, the others as inactive; · = no result given.

HDAC3 inh,MC4R ag barr,Yeast UUG start,NALP1 inh,MC4R antag cAMP,ALR H2O2 inh,structure
8,-1,-10,-5,10,98*,O=C(O)c1cccc(NC(=S)NC(=O)c2cccc(OCc3ccccc3)c2)c1
2,-1,-17,12,2,-3,CCCOc1cccc(C(=O)NC(=S)Nc2ccccc2)c1
2,1,·,38,14,48,CC(C)c1ccc(/C=C/C(=O)NC(=S)Nc2ccc(CN3CCOCC3)cc2)cc1
-3,2,-37,-5,13,89*,COC(=O)Cc1ccc(NC(=S)Nc2ccc(N3CCOCC3)cc2)cc1
·,·,8,·,·,·,C[C@@H]1CN([C@H](C)CO)C(=O)c2cc(NS(C)(=O)=O)ccc2O[C@@H](C)CCCCO[C@H]1CN(C)C(=O)Nc1ccc(F)cc1
·,·,-10,·,·,·,O=C(O)C[C@@H]1CC[C@@H](NC(=O)Nc2cc(F)ccc2F)[C@@H](CO)O1
·,·,7,·,·,·,C[C@@H]1CN([C@@H](C)CO)C(=O)c2cc(NS(=O)(=O)c3ccc(F)cc3)ccc2O[C@@H](C)CCCCO[C@H]1CN(C)C
-4,-2,·,-3,8,52,O=C(CSc1cn(CC(=O)N2CCCCCC2)c2ccccc12)NCC1CCCO1 (stereo unspecified)
3,14*,·,9,6,-11,O=C(/C=C/c1ccccc1)NC(=S)Nc1ccc(N2CCOCC2)cc1
3,-1,-19,7,6,96*,O=C(/C=C/c1ccco1)NC(=S)Nc1cccc(C(=O)O)c1
14,1,-14,24,5,-5,O=C(/C=C/c1ccccc1)NC(=S)Nc1ccccc1
7,1,-11,8,16,1,COc1cccc(NC(=S)NC(=O)/C=C/c2ccco2)c1
·,1,-8,6,8,98*,CCn1cc(SCC(=O)NCC2CCCO2)c2ccccc21 (stereo unspecified)
8,-2,5,6,12,99*,CC(=O)Nc1ccc(NC(=O)CSc2cn(CC(=O)N3CCOCC3)c3ccccc23)cc1
·,·,1,·,·,·,C[C@H]1CN([C@@H](C)CO)C(=O)c2cc(-c3cccnc3)cnc2O[C@@H]1CN(C)C(=O)c1cccc(F)c1
10,0,-26,2,-3,99*,O=C(/C=C/c1ccco1)NC(=S)Nc1ccccn1
12,-3,-14,-11,-2,81*,CN1CCN(c2ccc(NC(=S)NC(=O)/C=C/c3ccco3)cc2)CC1
-3,3,-25,22,17,99*,Cc1cccc(NC(=S)Nc2ccc(N3CCOCC3)cc2)c1C
3,0,2,11,-4,82*,Cc1cn(CCC(=O)Nc2ccc(N3CCOCC3)cc2)c2ccccc12
-2,2,·,18,-2,3,Cc1cn(CCC(=O)Nc2ccccc2N2CCOCC2)c2ccccc12
·,·,1,·,·,·,CCC(=O)N1C[C@@H](C)[C@H](OC)CN(C)C(=O)c2cc(NC(=O)NC(C)C)ccc2OC[C@H]1C
·,·,-3,·,·,·,Cc1ccccc1NC(=O)Nc1ccc2c(c1)C(=O)N(C)[C@H]1CC[C@@H](CC(=O)O)O[C@@H]1CO2
·,·,13,·,·,·,COc1ccc(NC(=O)C(OC(=O)c2ccccc2)c2cccs2)cc1 (stereo unspecified)
·,·,9,·,·,·,COc1ccc(CN(C)C[C@H]2OCCCC[C@H](C)Oc3ccc(NC(=O)Nc4c(C)noc4C)cc3C(=O)N([C@@H](C)CO)C[C@@H]2C)cc1
7,-2,·,2,-26,93*,COc1ccc(N/N=C(\C=N\O)C(=O)c2ccc(OC)cc2)cc1
1,-1,·,15,2,97*,CC1CCc2nc(/C(C#N)=C/c3cccnc3)sc2C1 (stereo unspecified)
4,-1,·,-5,-12,98*,N#C/C(=C\c1cccnc1)c1nc2c(s1)CCCC2
·,·,19,·,·,·,C[C@@H]1CN([C@H](C)CO)C(=O)c2cccc(NC(=O)c3ccc(-c4nccs4)cc3)c2O[C@@H]1CN(C)CC1CC1
0,0,-20,2,10,90*,COc1ccc(Oc2c(-c3ccc(O)cc3O)n[nH]c2C)cc1
7,9.6*,1,-21,12,·,C=C(C)COc1ccc(-c2n[nH]c(C)c2-c2ccc(OC)cc2)c(O)c1

Part of the list above, as comma-separated lines.
mol,HDAC3 inh,MC4R ag barr,Yeast UUG start,NALP1 inh,MC4R antag cAMP,ALR H2O2 inh
O=C(/C=C/c1ccccc1)NC(=S)Nc1ccc(N2CCOCC2)cc1,3,14*,·,9,6,-11
COc1cccc(NC(=S)NC(=O)/C=C/c2ccco2)c1,7,1,-11,8,16,1
O=C(O)c1cccc(NC(=S)NC(=O)c2cccc(OCc3ccccc3)c2)c1,8,-1,-10,-5,10,98*
C[C@@H]1CN([C@H](C)CO)C(=O)c2cccc(NC(=O)c3ccc(-c4nccs4)cc3)c2O[C@@H]1CN(C)CC1CC1,·,·,19,·,·,·
COc1ccc(N/N=C(\C=N\O)C(=O)c2ccc(OC)cc2)cc1,7,-2,·,2,-26,93*
C[C@@H]1CN([C@H](C)CO)C(=O)c2cc(NS(C)(=O)=O)ccc2O[C@@H](C)CCCCO[C@H]1CN(C)C(=O)Nc1ccc(F)cc1,·,·,8,·,·,·

The list goes on:
HDAC3 inh,MC4R ag barr,Yeast UUG start,NALP1 inh,MC4R antag cAMP,ALR H2O2 inh,structure
·,·,-10,·,·,·,O=C(C[C@H]1CC[C@@H](NC(=O)Nc2ccc(C(F)(F)F)cc2)[C@@H](CO)O1)NCc1ccccn1
·,·,6,·,·,·,CCCC#Cc1cnc2c(c1)C(=O)N([C@@H](C)CO)C[C@@H](C)[C@H](CN(C)Cc1ccccc1)O2
7,0,-4,21,-1,96*,COC(=O)c1cc(O)c(O)c(O)c1
·,·,16,·,·,·,C[C@@H]1CCCCO[C@@H](CN(C)C(=O)Cc2ccccc2)[C@@H](C)CN([C@@H](C)CO)C(=O)c2cc(NS(=O)(=O)c3cccs3)ccc2O1
-7,2,-7,17,-1,99*,CCOc1ccc(/C=N/NC(=O)NC23CC4CC(CC(C4)C2)C3)cc1O
3,-3,·,-13,3,100*,COc1cc(/C=N\NC(=O)C2CC3C=CC2C3)ccc1O (stereo unspecified)
4,-4,·,6,-12,99*,O=C(N/N=C/c1ccc(O)c(O)c1)NC12CC3CC(CC(C3)C1)C2
-6,1,0,10,6,95*,COc1cc(/C=N/NC(=O)NC23CC4CC(CC(C4)C2)C3)ccc1O
9,-1,14,13,13,-14,O=C(N/N=C/c1cccnc1)NC12CC3CC(CC(C3)C1)C2
6,4,-14,12,-6,28,O=C(N/N=C/c1ccccc1O)NC12CC3CC(CC(C3)C1)C2
8,3,-17,-8,11,-16,COc1cc(/C=N/NC(=O)c2cnccn2)ccc1O
·,·,11,·,·,·,C[C@@H]1CN([C@@H](C)CO)C(=O)c2cccc(NC(=O)Nc3ccccc3)c2O[C@@H]1CN(C)S(=O)(=O)c1ccc(Cl)cc1
·,·,1,·,·,·,C[C@@H]1CN([C@H](C)CO)C(=O)c2cc(NS(=O)(=O)c3ccc(Cl)cc3)ccc2O[C@@H](C)CCCCO[C@H]1CN(C)S(=O)(=O)c1ccc(F)cc1
·,·,0,·,·,·,C[C@H]1CCCCO[C@@H](CN(C)S(=O)(=O)c2cn(C)cn2)[C@@H](C)CN([C@@H](C)CO)C(=O)c2cc(NS(=O)(=O)c3ccc(Cl)cc3)ccc2O1
·,·,2,·,·,·,CCC(=O)N(C)C[C@@H]1Oc2cc(C#CC3CC3)ccc2S(=O)(=O)N([C@@H](C)CO)C[C@@H]1C
·,·,-1,·,·,·,Cc1noc(C)c1NC(=O)Nc1ccc2c(c1)C(=O)N([C@@H](C)CO)C[C@@H](C)[C@H](CN(C)Cc1ccc(C(=O)O)cc1)OCCCC[C@@H](C)O2
·,·,8,·,·,·,CC(C)CC#Cc1cnc2c(c1)C(=O)N([C@@H](C)CO)C[C@H](C)[C@H](CN(C)Cc1ccc(C(=O)O)cc1)O2

From PubChem
